Test results published in patent US20230355541A1, “ENZYMATICALLY CLEAVABLE SELF-ASSEMBLED NANOPARTICLES FOR MORPHOGEN DELIVERY” (UNIVERSITY OF SOUTH CAROLINA, priority 2019, published 2023).

Protein sequences, listed by entry. Tags and fused reporters are not part of them. Residues count along the entry.
UniProt P00747, 97-810, species assumed: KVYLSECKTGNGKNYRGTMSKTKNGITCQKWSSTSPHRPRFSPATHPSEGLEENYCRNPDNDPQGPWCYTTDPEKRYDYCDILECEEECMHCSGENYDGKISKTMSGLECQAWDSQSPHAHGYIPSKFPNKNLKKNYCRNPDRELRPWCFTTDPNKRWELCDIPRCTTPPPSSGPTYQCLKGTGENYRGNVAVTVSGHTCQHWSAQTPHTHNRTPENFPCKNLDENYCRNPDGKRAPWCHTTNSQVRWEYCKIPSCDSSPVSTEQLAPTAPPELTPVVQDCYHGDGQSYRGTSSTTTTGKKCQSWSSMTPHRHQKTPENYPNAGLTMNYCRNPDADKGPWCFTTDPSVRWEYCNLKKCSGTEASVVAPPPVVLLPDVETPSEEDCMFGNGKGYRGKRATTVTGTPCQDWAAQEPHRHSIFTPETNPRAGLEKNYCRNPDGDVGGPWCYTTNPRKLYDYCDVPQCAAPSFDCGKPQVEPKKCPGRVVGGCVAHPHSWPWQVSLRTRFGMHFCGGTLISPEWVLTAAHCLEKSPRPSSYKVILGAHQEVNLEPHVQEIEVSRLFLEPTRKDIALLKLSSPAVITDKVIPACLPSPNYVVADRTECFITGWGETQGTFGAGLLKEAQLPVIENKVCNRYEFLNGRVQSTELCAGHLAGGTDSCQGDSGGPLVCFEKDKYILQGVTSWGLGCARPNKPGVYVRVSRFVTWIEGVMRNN

Tests used:
plasmin = plasmin (Homo sapiens, UniProt P00747); test: BMP2 release from NPs encapsulated with plasmin in LPELA hydrogel (ELISA); type: physicochemical; conditions: for cumulative BMP2 activity, % of the total BMP2 loaded in the hydrogel: after 21 days, non-cleavable NPs and plasmin encapsulated in hydrogel, ELISA; for cumulative release of BMP2 from LPELA hydrogel: after 21 days of incubation, NPs co-encapsulated with plasmin
Procedure: For release studies, plasmin (0.2 U/mL) was added to the suspension of 10 mg BMP2-PxSPCP NPs in 1 mL PBS and incubated at 37° C. with shaking at 50 rpm. At each time point, the suspension was centrifuged at 10,000 rpm for 5 minutes, the supernatant containing the free BMP2 was collected and replaced with fresh plasmin solution. BMP2 content of the supernatant solution was measured with a BMP2 ELISA kit. BMP2 added directly to the plasmin solution and BMP2-PxSP NPs were used as control groups.
Release Characteristics and Bioactivity of BMP2-PxSPCP NPs: The grafting efficiency of BMP2 to PxSPCP NPs decreased from 73.1±2.7% to 69.5±3.2% and 24.5±1.4% as the PEG MW was increased from 2 kDa to 5 kDa and 7.5 kDa, respectively. This decrease was attributed to higher entrapment of the reactive succinimide groups of PxSPCP within the NPs' core with increasing PEG MW, which reduced their availability for BMP2 grafting. BMP2-PxSPCP NPs were encapsulated in LPELA hydrogel, the hydrogel was incubated in PBS, and the release of BMP2 to the incubating medium was measured with time by ELISA. FIGS. 7A-7C show the release kinetic of BMP2 from the encapsulated NPs in LPELA hydrogel with PxSPCP PEG MW of 2 kDa (FIG. 7A), 5 kDa (FIG. 7B), and 7.5 kDa (FIG. 7C), respectively. […] The additional lines in (FIGS. 7A-7C) provide the release of free BMP2 with (circle, 11) and without (circle, 12) plasmin from LPELA hydrogel; the + and − signs correspond to with and without plasmin, respectively. Error bars correspond to means ±1 SD for n=3.
Experimental groups included BMP2-PxSPCP NPs plus plasmin encapsulated in the hydrogel (9, 13, 15 in FIGS. 7A-7C, respectively), BMP2-PxSP NPs plus plasmin in the hydrogel (dash 10, dash 14 or dash 16 in FIGS. 7A-7C, respectively), free BMP2 in the hydrogel (11), and free BMP2 plus plasmin in the hydrogel (12). […] The incomplete (<100%) release of free BMP2 from the hydrogel was attributed to protein adsorption to the matrix or protein denaturation during hydrogel encapsulation and gelation. ELISA measurements detected relatively small but significant BMP2 activity with incubation time for BMP2-PxSP NPs and plasmin encapsulated in the hydrogel (see 10, 14, or 16 in FIGS. 7A-7C), but the activity decreased with increasing PEG MW of the NPs. The cumulative BMP2 activity after 21 days associated with the encapsulated BMP2-PxSP NPs with PEG MW of 2 kDa, 5 kDa, and 7.5 kDa was 30%, 20% and 19% of the total BMP2 loaded in the hydrogel, respectively. This BMP2 activity was attributed to the release of BMP2-PxSP NPs from the hydrogel which was subsequently detected by ELISA. The BMP2 grafted to PxSPCP NPs and co-encapsulated in the hydrogel with plasmin was gradually released to the medium with incubation time at a rate faster than BMP2-PxSP NPs but slower than the free BMP2. For example, the cumulative release of BMP2 from the encapsulated BMP2-P5SPCP NPs was 60% after 21 days which was higher than the encapsulated P5SP NPs at 20% and slower than the free BMP2 at 80%.

[1] = Grafting efficiency of BMP2 to PxSPCP NPs (ELISA of free BMP2); type: physicochemical; conditions: by PEG MW
Procedure: Grafting BMP2 to PxSPCP NPs and Protein Release: BSA was grafted to PxSPCP NPs for particle size analysis, grafting efficiency and protein stability studies whereas BMP2 was grafted for protein release and cell culture experiments. For grafting, 10 mg PxSPCP NPs were dispersed in PBS by sonication for 5 minutes. Next, 0.5 mL of BMP2 (400 ng/mL) or BSA (20 mg/mL) were added to the NP suspension and the grafting reaction between the free amine groups of BMP2 or BSA and the succinimide groups of the NPs was allowed to proceed overnight under ambient condition to produce BMP2-PxSPCP NPs (FIG. 1E). After the reaction, the suspension was centrifuged at 15000 rpm for 10 minutes and the amount of free (not grafted) BMP2 or BSA in the supernatant was quantified by ELISA or BCA protein assay, respectively.

hMSCs = test: Osteogenic activity of BMP2 released from NPs co-encapsulated with hMSCs in LPELA hydrogel; type: cell-based, human; conditions: for peak RUNX2 expression of hMSCs / peak ALP expression of hMSCs: mRNA fold expression; for peak RUNX2 expression of hMSCs: peak on day 7, osteogenic medium without DEX; for peak ALP expression of hMSCs: peak on day 14
Procedure: The bioactivity of BMP2 released from the NPs was determined by measuring the expression of osteogenic markers for hMSCs encapsulated in LPELA hydrogel and incubated in the osteogenic medium (without BMP2 or DEX) supplemented with BMP2 released from the NPs. The measured markers of osteogenic differentiation included RUNX2 (early marker) and calcium (late marker). Control groups included hMSCs encapsulated in LPELA hydrogel and incubated in osteogenic medium with or without BMP2 directly added to the medium.
(§1) Biochemical, mRNA and Protein Analysis and Immunofluorescent Staining: At each time point after washing the hydrogel constructs to remove serum proteins and sonicating to lyse the encapsulated cells, 43 samples were divided into four groups for biochemical, mRNA and protein analysis, and immunofluorescent staining. For biochemical analysis, the double-stranded DNA content, ALP activity, and calcium content of the homogenized samples were measured. For mRNA expression, the RNA of the homogenized samples was extracted and used for measurement of mRNA expression of osteogenic markers (RUNX2, Col I, and ALP) and vasculogenic markers (vWF, VEGFR, VE-cadherin, and CD31). To compare expression between the groups, mRNA-fold difference for expression of the gene of interest was normalized to that of GAPDH, followed by normalization against day one expression. The expression of CD31 vasculogenic marker of the homogenized samples at the protein level was quantified by western blot. Alizarin red and immunofluorescent staining were used to image the intensity of mineralization and CD31 expression. The stained samples were imaged with a Nikon Eclipse Ti-ε inverted fluorescent microscope.
Osteogenic Activity of BMP2 Released from PxSPCP NPs: BMP2-PxSPCP NPs (PEG MW of 2 kDa, 5 kDa, and 7.5 kDa) and hMSCs were co-encapsulated in LPELA hydrogel, incubated in osteogenic medium without DEX, and the extent of osteogenesis was measured with incubation time. The DNA contents of hMSCs with incubation time for BMP2-PxSPCP NPs with PEG MW of 2 kDa, 5 kDa, and 7.5 kDa are shown in FIGS. 8A-8C, respectively; mRNA expressions of RUNX2 are shown in FIGS. 8D-8F; and ALP mRNA expressions are shown in FIGS. 8G-8I. Experimental groups included BMP2-P2SPCP NPs (17), BMP2-P2SP NPs (18), BMP2-PSSPCP NPs (22), BMP2-PSSPCP NPs (23), BMP2-P7.5SPCP NPs (24), and BMP2-P7.5SP NPs (25) co-encapsulated with hMSCs in LPELA hydrogel. Control groups were hMSCs encapsulated in LPELA hydrogel and incubated in osteogenic medium supplemented with (19) or without (21) BMP2, and hMSCs co-encapsulated with BMP2 in the hydrogel and incubated in osteogenic medium without DEX (20). The DNA content of all groups decreased with incubation time. DNA content of those groups incubated in osteogenic medium without BMP2 or with BMP2-PxSP NPs decreased at a slower rate compared to those with BMP2 or BMP2-PxSPCP NPs, consistent with previous reports.

hMSCs and ECFCs = test: Osteogenic differentiation in patterned LPELA/GelMA hydrogel constructs; type: cell-based, human
Procedure: Encapsulation of hMSCs and ECFCs in Patterned Constructs: Patterned hydrogel constructs with GelMA micro-channels in LPELA matrix were generated for co-culture experiments (FIG. 2). […] The LPELA hydrogel precursor solution loaded with hMSCs and BMP2-PxSPCP NPs was injected inside a Teflon® cylinder fitted with needles. After LPELA gelation, needles were removed and the GelMA precursor solution loaded with ECFCs+hMSCs and VEGF-NGs was injected in the microchannels and crosslinked. The constructs were cultured in appropriate medium with time and analyzed with respect to the expression of markers for osteogenesis and vasculogenesis.
Needles with a diameter of 400 μm and inter-needle separation of 500 μm were inserted through the endcaps of a cylindrical Teflon® mold with diameter and height of 5 and 3 mm, respectively (FIG. 2). Next, the sterile LPELA precursor suspension composed of 200 mg LPELA, 4 mg Ac-GRGD (SEQ ID NO: 8) cell-adhesive peptide, 1.5 mg photo-initiator, 20 mg plasmin-cleavable PxSPCP NPs, and 2×106 hMSCs in 1 mL PBS was injected in the cylindrical mold and crosslinked by UV irradiation. Then, the needles were removed from the LPELA matrix, and the sterile GelMA precursor suspension composed of 50 mg GelMA, 0.375 mg photo-initiator, 2 mg VEGF-NGs, 2×106 of 50:50 hMSCs+ECFCs was injected in the channels and crosslinked by UV irradiation. After gelation, the patterned hydrogel constructs were washed with warm PBS, cultured in basal medium for one day, followed by cultivation in vasculogenic medium (without VEGF) for days 2-7, 50:50 mixture of vasculogenic and osteogenic medium (without VEGF, BMP2 or DEX) for days 8-10, and finally in osteogenic medium (without DEX or BMP2) for days 11-21.
as §1, with “Alizarin red and immunofluorescent staining were used to image the intensity of mineralization and CD31 expression. The stained samples were imaged with a Nikon Eclipse Ti-ε inverted fluorescent microscope.” left out

Substance | cumulative BMP2 activity, % of the total BMP2 loaded in the hydrogel (plasmin) | grafting efficiency of BMP2 to PxSPCP NPs [1] | peak RUNX2 expression of hMSCs (hMSCs) | peak ALP expression of hMSCs (hMSCs) | cumulative release of BMP2 from LPELA hydrogel (plasmin) | further results
BMP2-P2SP NPs: BMP2 grafted to non-cleavable PEG (2 kDa)-SP NPs without KFKT, control | 30% | – | – | – | – | –
BMP2-P2SPCP NPs: BMP2 grafted to plasmin-cleavable P2SPCP NPs | – | 73.1±2.7% | 5.7 | 60 | – | Col I-fold expression (hMSCs and ECFCs; FIG. 9D): 15; calcium content (hMSCs and ECFCs; FIG. 9E): 390 mg/mg DNA; ALP activity (hMSCs and ECFCs; FIG. 9F): 2550 IU/mg DNA; Alizarin red staining (mineralization) (hMSCs and ECFCs; after 21 days of incubation): robust mineralization and nodule formation
BMP2-P5SP NPs: BMP2 grafted to non-cleavable PEG (5 kDa)-SP NPs without KFKT, control | 20% | – | – | – | 20% | –
BMP2-P5SPCP NPs: BMP2 grafted to plasmin-cleavable P5SPCP NPs | – | 69.5±3.2% | 5.7 | 52 | 60% | –
BMP2-P7.5SP NPs: BMP2 grafted to non-cleavable PEG (7.5 kDa)-SP NPs without KFKT, control | 19% | – | – | – | – | –
BMP2-P7.5SPCP NPs: BMP2 grafted to plasmin-cleavable P7.5SPCP NPs | – | 24.5±1.4% | 4.2 | 48 | – | osteogenic activity (peak RUNX2 expression), comparison in words (hMSCs; hMSCs in LPELA hydrogel): lower
free BMP2: rhBMP-2 (hereafter referred to as BMP2), received from MyBioSource | – | – | – | – | Approximately 80% | effect of addition of plasmin to the hydrogel on BMP2 release (plasmin; free BMP2 in LPELA hydrogel): did not affect
